Measured values: ChEMBL document CHEMBL3352716 (ACS Med Chem Lett, 2014)

Assay: Cytotoxicity against human L02 cells by MTT assay
Format: cell-based
Procedure, shortened: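 Toxicity compared on human normal liver L-02 cells and human liver cancer Bel-7402 cells run side by side. Survival curves by MTT after 72 h treatment. IC50 is the concentration inhibiting 50% of cell growth.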

Q: With `O=C(O)c1ccc(N(CCCl)CCCl)cc1` as the compound, how does the IC50 read?
A: > 100 µM
